Measured values as given in ChEMBL document CHEMBL1130246, “Tyrosine kinase inhibitors. 13. Structure-activity relationships for soluble 7-substituted 4-[(3-bromophenyl)amino]pyrido[4,3-d]pyrimidines designed as inhibitors of the tyrosine kinase activity of the epidermal growth factor receptor” (J Med Chem, 1997).

By UniProt entry, the sequences of proteins in these tests, tags left out.
UniProt P00533, whole entry: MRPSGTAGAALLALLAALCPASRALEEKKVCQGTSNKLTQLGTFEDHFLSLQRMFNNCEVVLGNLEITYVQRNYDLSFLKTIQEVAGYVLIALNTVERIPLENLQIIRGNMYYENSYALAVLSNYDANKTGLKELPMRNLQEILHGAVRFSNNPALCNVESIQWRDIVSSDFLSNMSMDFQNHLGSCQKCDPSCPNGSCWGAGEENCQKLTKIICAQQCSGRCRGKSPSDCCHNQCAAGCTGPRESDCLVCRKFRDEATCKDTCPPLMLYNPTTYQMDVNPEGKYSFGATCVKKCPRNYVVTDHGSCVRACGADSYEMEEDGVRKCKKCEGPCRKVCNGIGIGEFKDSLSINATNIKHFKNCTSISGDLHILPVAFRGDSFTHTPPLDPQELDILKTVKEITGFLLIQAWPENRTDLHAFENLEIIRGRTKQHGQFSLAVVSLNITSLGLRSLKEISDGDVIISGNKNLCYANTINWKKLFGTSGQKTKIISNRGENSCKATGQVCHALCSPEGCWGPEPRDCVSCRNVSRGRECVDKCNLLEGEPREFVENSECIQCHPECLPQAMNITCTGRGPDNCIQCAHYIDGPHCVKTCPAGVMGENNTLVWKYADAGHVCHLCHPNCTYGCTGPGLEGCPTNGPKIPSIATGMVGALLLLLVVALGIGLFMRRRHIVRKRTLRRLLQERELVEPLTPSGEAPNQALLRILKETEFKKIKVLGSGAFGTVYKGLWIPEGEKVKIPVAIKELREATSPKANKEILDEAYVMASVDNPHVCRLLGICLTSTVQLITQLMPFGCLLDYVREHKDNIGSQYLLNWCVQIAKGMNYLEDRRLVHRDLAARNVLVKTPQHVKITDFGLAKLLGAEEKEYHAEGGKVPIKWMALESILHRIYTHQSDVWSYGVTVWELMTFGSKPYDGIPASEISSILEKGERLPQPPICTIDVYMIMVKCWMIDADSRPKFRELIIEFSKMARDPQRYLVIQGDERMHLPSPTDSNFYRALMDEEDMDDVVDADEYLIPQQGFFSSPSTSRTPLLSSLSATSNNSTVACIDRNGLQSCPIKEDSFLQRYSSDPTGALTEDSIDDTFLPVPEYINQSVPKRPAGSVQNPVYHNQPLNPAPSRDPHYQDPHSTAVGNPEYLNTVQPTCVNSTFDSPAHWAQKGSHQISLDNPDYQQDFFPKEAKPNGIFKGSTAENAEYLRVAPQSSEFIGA

Biological target: Epidermal growth factor receptor (Homo sapiens, UniProt P00533)
Assay: Inhibition of phosphorylation of polyglutamic acid/tyrosine random copolymer by epidermal growth factor receptor.

CNc1ccc2c(Nc3cccc(Br)c3)ncnc2c1
IC50: 4 nM
